# Source: ChEMBL document CHEMBL6087483, “Discovery of Potent, Highly Selective, and Orally Bioavailable MTA Cooperative PRMT5 Inhibitors with Robust In Vivo Antitumor Activity” (J Med Chem, 2025)
# Assay: Selectivity ratio of IC50 for inhibition of PRMT5 (unknown origin) to IC50 for inhibition of PRMT5 (unknown origin) in presence of MTA
smiles,measurement,value
CN(C(=O)c1cc2c3c(c(N)nc2cc1F)COC3)[C@@H]1CCN(c2ccc(C#N)cc2)C1,Ratio IC50,14.5
